# AlphaSeq binding of Ab-14 light chain variants to a spike HR2 peptide

Data: MIT Lincoln Laboratory AlphaSeq set, Li et al. 2023, doi:10.1038/s41467-023-39022-2, as distributed in FLAb.

Antigen: PDVDLGDISGINAS, a 14-residue peptide of the SARS-CoV-2 spike HR2 region.

Each scFv is VH, three GGGGS repeats, VL, as in the parent Ab-14, and differs from it in the CDRs of the light chain only.
VH: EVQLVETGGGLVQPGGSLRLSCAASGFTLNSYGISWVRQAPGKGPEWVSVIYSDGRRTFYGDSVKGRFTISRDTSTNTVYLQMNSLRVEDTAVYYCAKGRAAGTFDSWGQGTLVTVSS
VL: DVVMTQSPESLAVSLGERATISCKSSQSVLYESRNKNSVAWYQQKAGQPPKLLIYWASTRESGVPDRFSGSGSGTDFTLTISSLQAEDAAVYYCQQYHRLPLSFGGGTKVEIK

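The starting antibody came from a phage panning campaign against this peptide. Designed CDR sequences, proposed from the first random library and measured here. Group labels follow the data file (Ctrl: baseline library sampled from a position-specific scoring matrix, with some repeated check sequences; En: ensemble of fine-tuned language models; GP: Gaussian process model; HC: hill climbing; Gen: genetic algorithm; Gibbs: Gibbs sampling; a sequence that several methods proposed may carry one label only). The assay is AlphaSeq: two haploid yeast populations carry antibody and antigen on their surface. Mating (16 h, 30 °C) was followed by selection of diploids and sequencing of their barcodes. A regression on co-assayed BCL2-family reference pairs converts the normalised counts of each replicate to an apparent Kd. The assay was run in six technical replicates.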

Variants are written as CDR1, CDR2 and CDR3 of the light chain (limits as in the source). Parent: KSSQSVLYESRNKNSVA, WASTRES, QQYHRLPLS.
Each Kd is an estimate from the mating assay, the geometric mean of the replicates in which the pair was seen; lower is stronger.
A pair that was not seen in any replicate is written "nd"; this usually means weak binding, but a binder can also be missed.
Order: sorted from the lowest average up, undetected variants last.

Result 360 pM (6 of 6 replicates; controls 0 of 18), variant KLQQSMLYESRNKNSVA, DASQRES, QQYHRLPLS [GP_Gen].
Result 390 pM (6 of 6 replicates; controls 1 of 18), variant KVQPSGGMLSRNKNSVA, DASTRES, QQYHRLPLS [GP_Gibbs].
Result 430 pM (6 of 6 replicates; controls 2 of 18), variant KLSQSVLYEGRNDNSVA, NASTRMS, QQYHRLPLS [GP_Gibbs].
Result 770 pM (6 of 6 replicates; controls 1 of 18), variant KLAGVTEYEMRNKNSVA, QMTTRES, QQYTRLPLS [En_HC].
Result 1.1 nM (6 of 6 replicates; controls 1 of 18), variant SLMQVGGYELNEHNSIA, DLRTRES, QQYHRLPLS [En_HC].
Result 1.3 nM (6 of 6 replicates; controls 1 of 18), variant KVSLSVLLWSRNVNAVA, EASTRES, QQYHRLPLS [GP_Gibbs].
Result 1.4 nM (12 of 12 replicates; controls 1 of 36), variant KSSDSVLYESRNKNSVA, DASTRES, QQYHRLPLS [Ctrl+GP_HC].
Result 1.8 nM (6 of 6 replicates; controls 1 of 18), variant VFSGQWDGVTTTNSAVA, NVDERML, QQYNRLPLM [En_Gibbs].
Result 2.3 nM (6 of 6 replicates; controls 1 of 18), variant TISQSVLMTGLNRNNVA, QAEERLE, QQYHRLPLS [En_HC].
Result 2.6 nM (6 of 6 replicates; controls 0 of 18), variant KSSQVYLYESRNKNSVA, GASTRES, QQYHRLPLI [GP_HC].
Result 2.7 nM (6 of 6 replicates; controls 0 of 18), variant RIQDHMAVGEMSHSSIA, EEATVMD, QQYSRLPLA [En_Gibbs].
Result 2.9 nM (6 of 6 replicates; controls 0 of 18), variant KSSISYLYESANKNSVA, AASTRES, QQYHRLPLS [GP_HC].
Result 2.9 nM (6 of 6 replicates; controls 1 of 18), variant MISNVMNTLTHVGNNVA, DLSEREN, QQYFRLPLS [En_Gen].
Result 4.0 nM (6 of 6 replicates; controls 0 of 18), variant QIGMLLNFESQKINNVA, QMETRVN, QQYDRLPLS [En_Gen].
Result 4.7 nM (6 of 6 replicates; controls 1 of 18), variant TLYGLSNSMSINKNSVA, EMTTRED, QQYDRLPLI [En_Gen].
Result 4.9 nM (6 of 6 replicates; controls 2 of 18), variant KMSQSVLYESRNDNSVA, AASTREA, QAYHRLPLS [Ctrl].
Result 5.3 nM (6 of 6 replicates; controls 0 of 18), variant MFSQSVLYESVMKNNVA, QTSTRES, QQYDHLPLS [En_HC].
Result 7.0 nM (6 of 6 replicates; controls 2 of 18), variant HISQSFMTESVWRNSVA, HQSTREQ, QQYDRLPLS [En_HC].
Result 8.3 nM (6 of 6 replicates; controls 3 of 18), variant HVHMEMAIWKEILNNIA, DAQNRAA, QQYFRLPLG [En_Gibbs].
Result 8.3 nM (6 of 6 replicates; controls 0 of 18), variant KISGYLNKETKNKNSVA, EMVNRES, QQYDRLPLS [En_HC].
Result 8.7 nM (6 of 6 replicates; controls 1 of 18), variant KSSQSALYESRNKNNVA, WASTRES, QQYHRLPLS [Ctrl].
Result 8.8 nM (6 of 6 replicates; controls 1 of 18), variant KLMDNPWVEDKYRNNIA, DIETKAI, QHYSRLPLL [En_Gibbs].
Result 9.4 nM (6 of 6 replicates; controls 0 of 18), variant KVSQSYLYESRNKNSVA, NASYRES, QQYHRLPLS [GP_Gen].
Result 12 nM (2 of 6 replicates; controls 0 of 18), variant AISPGEMAENQNINAVA, DRGAMIW, QQYARLPLS [En_Gibbs].
Result 16 nM (6 of 6 replicates; controls 2 of 18), variant NMRGSEGEIAQHGYSVA, GVDLRAA, QQYARLPLH [En_Gibbs].
Result 17 nM (4 of 6 replicates; controls 0 of 18), variant KSSQSVLYESRLTNSVA, SASTRES, QQYHRLPLS [Ctrl].
Result 17 nM (6 of 6 replicates; controls 0 of 18), variant KSSQSVRYENRTKNSVA, WASTRES, QQYHRLPLS [Ctrl].
Result 21 nM (6 of 6 replicates; controls 0 of 18), variant MLSQMTGLGQHAKNSVA, QASMRFN, QQYFRLPLI [En_Gen].
Result 24 nM (6 of 6 replicates; controls 1 of 18), variant KISQSMLFMSGKKNAIA, QMEMREE, QQYDRLPLS [En_HC].
Result 29 nM (6 of 6 replicates; controls 2 of 18), variant KIIQSVAMSSRNKDSIA, DNSTRES, QQYHRLPLS [En_HC].
Result 51 nM (5 of 6 replicates; controls 0 of 18), variant KSSQSQLYEGRNKNSVA, WASTRES, QQYHRLPLS [Ctrl].
Result 66 nM (6 of 6 replicates; controls 1 of 18), variant TIGGTLMFGMRNRSNVA, EVSERLK, QQYDRLPLI [En_Gen].
Result 86 nM (4 of 6 replicates; controls 2 of 18), variant KLSESAHFESRKKNSVA, ENSTREN, QQYDHLPLS [En_HC].
Result 110 nM (5 of 6 replicates; controls 1 of 18), variant HMRMDCYGYQNYGKAIA, HGNMRHN, QQYSRLPFS [En_Gibbs].
Result 150 nM (3 of 6 replicates; controls 2 of 18), variant MISQVTGLGQRHRNNVA, QTSMREN, QQYDRLPLV [En_Gen].
Result 170 nM (2 of 6 replicates; controls 0 of 18), variant MISQLMNLGQFAINSVA, QASIRNE, QQYDRLPLT [En_Gen].
Result 210 nM (5 of 6 replicates; controls 0 of 18), variant TISQMTSLFSQSINNVA, EVSMREP, QQYDRLPLT [En_Gen].
Result 220 nM (1 of 6 replicates; controls 0 of 18), variant KLSQGTYGLTQIDSNVA, HDEMRWA, QQYDKLPLI [En_Gibbs].
Result nd (0 of 6 replicates; controls 0 of 18), variant KFSQMANQFSVSMNAVA, EMSTRES, QQYNRLPLA [En_Gen].

Top 5 of the variants detected in all replicates, tightest first:

KLQQSMLYESRNKNSVA, DASQRES, QQYHRLPLS [GP_Gen]: 360 pM (6 of 6 replicates; controls 0 of 18).
KVQPSGGMLSRNKNSVA, DASTRES, QQYHRLPLS [GP_Gibbs]: 390 pM (6 of 6 replicates; controls 1 of 18).
KLSQSVLYEGRNDNSVA, NASTRMS, QQYHRLPLS [GP_Gibbs]: 430 pM (6 of 6 replicates; controls 2 of 18).
KLAGVTEYEMRNKNSVA, QMTTRES, QQYTRLPLS [En_HC]: 770 pM (6 of 6 replicates; controls 1 of 18).
SLMQVGGYELNEHNSIA, DLRTRES, QQYHRLPLS [En_HC]: 1.1 nM (6 of 6 replicates; controls 1 of 18).

Background: pairings of all light chain designs with three empty control strains gave a value in 4% of cases (median 430 nM, 5th percentile 38 nM). Values in that range, when seen in few replicates, are hard to tell from nonspecific mating. Also given: how often the same scFv was detected with the empty control strains.
Where one sequence has several entries in the source, the replicates are pooled.
The range of this assay differs from that of the first round, and the authors advise against merging the two.
The authors' rule: three or more of the six replicates give a measured affinity, fewer mean a poor binder.